# Laboratory results as given in ChEMBL document CHEMBL1146241, “Novel inhibitor for fibroblast growth factor receptor tyrosine kinase” (Bioorg Med Chem Lett, 2007).
# Protein sequences, listed by entry. Tags and fused reporters are not part of them.
# UniProt P11362, whole entry, looked up: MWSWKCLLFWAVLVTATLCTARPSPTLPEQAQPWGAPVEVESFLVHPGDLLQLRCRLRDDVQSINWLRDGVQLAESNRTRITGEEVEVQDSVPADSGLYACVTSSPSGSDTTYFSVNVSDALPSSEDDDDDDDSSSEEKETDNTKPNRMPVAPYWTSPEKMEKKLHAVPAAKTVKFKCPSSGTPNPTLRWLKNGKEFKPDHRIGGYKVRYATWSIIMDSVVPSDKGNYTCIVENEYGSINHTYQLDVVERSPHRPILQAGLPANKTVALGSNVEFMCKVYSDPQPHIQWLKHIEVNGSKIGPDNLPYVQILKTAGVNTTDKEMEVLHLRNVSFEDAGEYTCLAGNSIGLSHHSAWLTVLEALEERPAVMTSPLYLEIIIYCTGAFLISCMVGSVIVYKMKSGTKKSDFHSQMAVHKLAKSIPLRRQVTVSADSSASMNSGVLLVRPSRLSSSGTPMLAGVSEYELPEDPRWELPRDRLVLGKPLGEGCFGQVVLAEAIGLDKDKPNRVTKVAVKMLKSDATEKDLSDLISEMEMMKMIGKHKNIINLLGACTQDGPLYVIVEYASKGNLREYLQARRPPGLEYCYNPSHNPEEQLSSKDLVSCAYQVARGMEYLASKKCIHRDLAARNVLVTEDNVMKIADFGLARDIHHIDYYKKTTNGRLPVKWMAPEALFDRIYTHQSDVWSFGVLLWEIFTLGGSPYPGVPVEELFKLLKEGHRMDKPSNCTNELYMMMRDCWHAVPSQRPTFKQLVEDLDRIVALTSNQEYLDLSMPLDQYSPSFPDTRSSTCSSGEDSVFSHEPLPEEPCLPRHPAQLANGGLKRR
# Biological target: Fibroblast growth factor receptor 1 (Homo sapiens, UniProt P11362)
# Details: HUVEC
smiles,measurement,value
Cc1[nH]c(/C=C2\C(=O)Nc3cc(-c4ccccc4)ccc32)c(C)c1CCC(=O)O,MEC,10 µM
